The text below walks through data of patent EP1296995B1, “3'-PRODRUGS OF 2'-DEOXY-BETA-L-NUCLEOSIDES” (priority 2000, dated 2001).

Sequences of proteins named here, by UniProt entry; tags and fusion partners are left off. A change or cut given only in a name is not applied to a line headed by its entry.
UniProt P09884: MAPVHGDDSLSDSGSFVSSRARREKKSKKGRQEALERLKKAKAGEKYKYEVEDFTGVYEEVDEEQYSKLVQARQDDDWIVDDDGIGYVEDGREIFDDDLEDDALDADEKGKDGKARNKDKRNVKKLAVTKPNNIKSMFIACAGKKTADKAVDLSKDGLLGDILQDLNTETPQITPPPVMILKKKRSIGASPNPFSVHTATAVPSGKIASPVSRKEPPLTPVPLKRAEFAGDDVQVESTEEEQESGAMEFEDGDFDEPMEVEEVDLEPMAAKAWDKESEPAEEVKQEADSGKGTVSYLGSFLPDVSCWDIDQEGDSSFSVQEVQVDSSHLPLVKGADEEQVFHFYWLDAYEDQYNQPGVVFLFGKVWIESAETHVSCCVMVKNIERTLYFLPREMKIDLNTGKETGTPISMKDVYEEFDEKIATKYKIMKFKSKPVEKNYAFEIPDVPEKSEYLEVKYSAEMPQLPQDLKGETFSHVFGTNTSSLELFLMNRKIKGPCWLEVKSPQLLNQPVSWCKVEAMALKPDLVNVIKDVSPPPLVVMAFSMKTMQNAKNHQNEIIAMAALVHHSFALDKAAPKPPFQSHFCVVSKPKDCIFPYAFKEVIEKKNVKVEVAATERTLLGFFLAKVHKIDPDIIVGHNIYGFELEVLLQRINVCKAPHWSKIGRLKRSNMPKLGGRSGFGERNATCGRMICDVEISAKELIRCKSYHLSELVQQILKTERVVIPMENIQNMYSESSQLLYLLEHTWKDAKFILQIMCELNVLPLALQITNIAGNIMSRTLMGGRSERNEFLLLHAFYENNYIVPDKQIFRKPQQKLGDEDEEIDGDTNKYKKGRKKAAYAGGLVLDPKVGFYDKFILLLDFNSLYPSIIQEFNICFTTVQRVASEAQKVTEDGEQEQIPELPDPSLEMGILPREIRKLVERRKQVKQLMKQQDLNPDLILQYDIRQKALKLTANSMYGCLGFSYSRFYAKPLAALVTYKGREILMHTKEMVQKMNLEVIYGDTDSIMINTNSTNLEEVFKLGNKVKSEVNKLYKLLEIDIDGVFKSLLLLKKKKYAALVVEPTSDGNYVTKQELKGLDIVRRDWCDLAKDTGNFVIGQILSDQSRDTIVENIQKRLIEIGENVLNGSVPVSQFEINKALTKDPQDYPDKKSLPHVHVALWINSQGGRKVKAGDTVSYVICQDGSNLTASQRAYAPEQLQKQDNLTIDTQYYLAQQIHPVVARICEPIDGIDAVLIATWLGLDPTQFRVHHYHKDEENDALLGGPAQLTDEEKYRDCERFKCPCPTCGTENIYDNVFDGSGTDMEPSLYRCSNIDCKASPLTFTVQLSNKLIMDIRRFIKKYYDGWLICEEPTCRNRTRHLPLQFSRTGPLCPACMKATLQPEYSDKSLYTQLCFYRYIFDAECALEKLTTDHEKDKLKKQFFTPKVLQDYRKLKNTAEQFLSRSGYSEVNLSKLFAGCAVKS

The structures appear in SMILES notation.

The target of assay [1] is T1, human DNA polymerase α (Homo sapiens, UniProt P09884). The experiment in a line: biochemical. The note with it: read-out: inhibition of human DNA polymerase α.
For assay [2], the target named is T1, human DNA polymerase α.

On to `Cc1cn([C@H]2C[C@H](N)[C@@H](COP(=O)(O)OP(=O)(O)OP(=O)(O)O)O2)c(=O)[nH]c1=O` [3'-amino-3'-deoxythymidine (AMT) TP], for which the inhibition at 10 µM in assay [1] came to 30%.
As to `Nc1ccn([C@@H]2C[C@@H](O)[C@H](COP(=O)(O)OP(=O)(O)OP(=O)(O)O)O2)c(=O)n1` [L-dC-TP], the “inhibition of human DNA polymerase α” value in assay [2] (up to concentrations of 100 µM, the highest concentration tested, listed as triphosphate form of L-dC) is on record as “not inhibitory”.
For the molecule `Nc1ncnc2c1ncn2[C@@H]1CC[C@H](COP(=O)(O)OP(=O)(O)OP(=O)(O)O)O1` [L-ddA-TP, reference compound], the IC50 in assay [2] (read-out: IC50 Human DNA pol α) was > 100 µM.
